Measurements as given in patent US20110293559A1, “CATABOLIC AGENTS” (priority 2008, published 2011).

Tested on: MMP13 gene expression
Assay: qPCR MMP13 gene expression in cartilage explants
Assay type: cell-based
Source text: Six millimetre diameter cartilage explants from immature articular cartilage containing 3 mm diameter inner cores, both created using punch biopsy tools (Steifel), were placed in Dulbecco's modified Eagles medium (DMEM) culture medium containing various concentrations of interleukin-1β or tumour necrosis factor α (TNFα; Peprotech), or, the culture medium without cytokine as a control. The medium was removed after the nominated time and washed once with DMEM then replaced with DMEM medium containing 50 μg/ml ascorbate, 10 mM HEPES, gentamycin and supplemented with 1× insulin-transferrin-selenium (ITS; Sigma). For qPCR studies the explants were first allowed to equilibriate in serum containing medium for 3 days, then washed 3 times in serum-free DMEM before the treatment as described above. […]
Quantitative polymerase chain reaction (qPCR) using the fluorescent dye SYBR Green (Eurogentec, Belgium) was used to determine the absolute expression levels of ADAMTS4 and MMP-13 between explants. […] At the end of each reaction, the cycle threshold (CT) was manually setup at the level that reflected the best kinetic PCR parameters, and melting curves were acquired and analysed. Absolute values for the gene of interest were calculated from standard curves generated using serially diluted plasmid cloned and sequence verified template (ng DNA) and were normalized to the housekeeping gene 18S rRNA.

TNFα: catabolic cytokine tumour necrosis factor α (Peprotech)
MMP13 gene expression, effect of increasing concentrations (12.5-100 ng/ml for 2 hours): linear increase in MMP13 gene expression | increase in MMP13 gene expression (highest concentration of TNFα (12.5-100 ng/ml tested), 2 hours, P<0.03, n=3 (FIG. 4)): approximately 2 fold
